Laboratory results: US12583836B2 (Anaxis Pharma Pty Ltd, priority 2020, dated 2026)

Chains of the proteins cited; added tags and fusions are not shown. Lines headed by an entry give the natural chain unless they say otherwise; changes in a name come on top.
UniProt Q9Y572: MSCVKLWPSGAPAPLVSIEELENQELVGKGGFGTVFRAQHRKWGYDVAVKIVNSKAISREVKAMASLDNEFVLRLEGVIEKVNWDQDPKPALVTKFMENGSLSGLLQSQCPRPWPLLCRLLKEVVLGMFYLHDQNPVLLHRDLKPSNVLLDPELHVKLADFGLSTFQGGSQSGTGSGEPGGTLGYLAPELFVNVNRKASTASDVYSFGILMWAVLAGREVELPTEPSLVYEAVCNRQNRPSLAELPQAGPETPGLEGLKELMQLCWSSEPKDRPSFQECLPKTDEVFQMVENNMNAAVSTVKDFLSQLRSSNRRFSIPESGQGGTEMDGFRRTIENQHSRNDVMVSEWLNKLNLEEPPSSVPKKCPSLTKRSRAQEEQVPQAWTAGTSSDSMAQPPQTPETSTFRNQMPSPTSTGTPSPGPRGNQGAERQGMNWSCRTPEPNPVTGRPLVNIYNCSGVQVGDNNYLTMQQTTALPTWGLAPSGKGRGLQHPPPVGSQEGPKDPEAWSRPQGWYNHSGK

Legend:
Conditions in all cases: equilibrium dissociation constant, class symbols
RIP3 = biological target: T1, RIP3 (Homo sapiens, UniProt Q9Y572); assay: KINOMEscan binding assay, RIP3
T1 construct: purchased DiscoverX (KINOMEscan service); host or cells: E. coli BL21-derived (T7 phage) or HEK293

MLKL (full length) = biological target: T2, MLKL (full length) (Homo sapiens, UniProt Q8NB16); assay: KINOMEscan binding assay, MLKL
T2 construct: purchased DiscoverX (KINOMEscan service); host or cells: E. coli BL21-derived (T7 phage) or HEK293
T2 sequence (Q8NB16 1-471): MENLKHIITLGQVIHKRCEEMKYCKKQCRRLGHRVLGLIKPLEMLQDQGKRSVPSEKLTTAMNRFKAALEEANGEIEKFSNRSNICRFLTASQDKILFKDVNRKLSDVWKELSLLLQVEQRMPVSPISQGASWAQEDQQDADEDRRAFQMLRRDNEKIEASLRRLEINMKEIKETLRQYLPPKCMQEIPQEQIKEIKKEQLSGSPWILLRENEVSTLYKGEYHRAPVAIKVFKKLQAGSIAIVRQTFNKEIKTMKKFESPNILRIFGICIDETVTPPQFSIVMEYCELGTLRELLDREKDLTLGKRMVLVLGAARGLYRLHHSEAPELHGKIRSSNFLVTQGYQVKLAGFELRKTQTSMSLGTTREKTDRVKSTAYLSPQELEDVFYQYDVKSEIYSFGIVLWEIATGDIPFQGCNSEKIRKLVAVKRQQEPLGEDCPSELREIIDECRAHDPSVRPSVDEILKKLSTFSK

RIP1 = biological target: T3, RIP1 (Homo sapiens, UniProt Q13546); assay: KINOMEscan binding assay, RIP1
T3 construct: purchased DiscoverX (KINOMEscan service); host or cells: E. coli BL21-derived (T7 phage) or HEK293
T3 sequence (Q13546 1-671): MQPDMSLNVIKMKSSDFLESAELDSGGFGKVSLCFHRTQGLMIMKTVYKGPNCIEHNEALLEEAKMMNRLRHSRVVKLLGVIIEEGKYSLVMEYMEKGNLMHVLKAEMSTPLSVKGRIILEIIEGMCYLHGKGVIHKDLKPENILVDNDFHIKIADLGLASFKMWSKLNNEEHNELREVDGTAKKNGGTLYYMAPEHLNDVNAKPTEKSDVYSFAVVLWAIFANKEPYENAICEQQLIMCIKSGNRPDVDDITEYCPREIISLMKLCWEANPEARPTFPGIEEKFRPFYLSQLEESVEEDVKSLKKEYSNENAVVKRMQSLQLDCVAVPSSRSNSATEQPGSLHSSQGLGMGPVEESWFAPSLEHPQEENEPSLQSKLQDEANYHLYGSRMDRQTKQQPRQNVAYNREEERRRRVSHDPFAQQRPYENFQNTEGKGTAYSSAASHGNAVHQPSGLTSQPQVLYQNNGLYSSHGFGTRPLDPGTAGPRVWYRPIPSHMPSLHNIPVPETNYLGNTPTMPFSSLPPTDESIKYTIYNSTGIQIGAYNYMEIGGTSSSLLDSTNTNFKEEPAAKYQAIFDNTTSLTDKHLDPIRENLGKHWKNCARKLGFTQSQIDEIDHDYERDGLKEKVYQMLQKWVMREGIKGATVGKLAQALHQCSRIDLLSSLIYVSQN

Row | Compound | Kd (RIP3) [µM] | Kd (MLKL (full length)) [µM] | Kd (RIP1) [µM]
1 | COCCS(=O)(=O)Nc1ccc(-c2n[nH]c(Nc3cccc(C(F)(F)F)n3)c2C(N)=O)cc1 [Compound 50, 3-(4-((2-methoxyethyl)sulfonamido)phenyl)-5-((6-(trifluoromethyl)pyridin-2-yl)amino)-1H-pyrazole-4-carboxamide] | > 30 | 0.01 to 1 | > 30
2 | Cc1cc(Nc2[nH]nc(-c3ccc(NS(=O)(=O)C(F)F)c(O[C@@H](C)c4ccc(F)cc4)c3)c2C(N)=O)on1 [Compound 302, (S)-3-(4-((difluoromethyl)sulfonamido)-3-(1-(4-fluorophenyl)ethoxy)phenyl)-5-((3-methylisoxazol-5-yl)amino)-1H-pyrazole-4-carboxamide] | > 30 | < 0.01 | > 30
3 | NC(=O)c1c(-c2ccc(NS(=O)(=O)C3CC3)cc2)n[nH]c1Nc1cnccn1 [Compound 68, 3-(4-(cyclopropanesulfonamido)phenyl)-5-(pyrazin-2-ylamino)-1H-pyrazole-4-carboxamide] | > 30 | < 0.01 | > 30
4 | NC(=O)c1c(-c2ccc(NS(=O)(=O)C(F)F)c(OCc3ncco3)c2)n[nH]c1Nc1cnccn1 [Compound 313, 3-(4-((difluoromethyl)sulfonamido)-3-(oxazol-2-ylmethoxy)phenyl)-5-(pyrazin-2-ylamino)-1H-pyrazole-4-carboxamide] | > 30 | < 0.01 | > 30
5 | CCS(=O)(=O)Nc1ccc(-c2n[nH]c(Nc3cccc(OC(F)(F)F)n3)c2C(N)=O)cc1 [Compound 103, 3-(4-(ethylsulfonamido)phenyl)-5-((6-(trifluoromethoxy)pyridin-2-yl)amino)-1H-pyrazole-4-carboxamide] | 1 to 30 | < 0.01 | > 30
6 | CCS(=O)(=O)Nc1ccc(-c2n[nH]c(Nc3cccc(C(F)(F)F)n3)c2C(N)=O)c(OCc2ccc(F)cc2)c1 [Compound 141, 3-(4-(ethylsulfonamido)-2-((4-fluorobenzyl)oxy)phenyl)-5-((6-(trifluoromethyl)pyridine-2-yl)amino)-1H-pyrazole-4-carboxamide] | > 30 | 1 to 30 | > 30
7 | C[C@H](Oc1cc(-c2n[nH]c(Nc3cc(C(C)(C)C)no3)c2C(N)=O)ccc1NS(=O)(=O)C(F)F)c1ccc(F)cc1 [Compound 295, (S)-5-((3-(tert-butyl)isoxazol-5-yl)amino)-3-(4-((difluoromethyl)sulfonamido)-3-(1-(4-fluorophenyl)ethoxy)phenyl)-1H-pyrazole-4-carboxamide] | > 30 | < 0.01 | > 30
8 | C[C@@H](Oc1cc(-c2n[nH]c(Nc3cnccn3)c2C(N)=O)ccc1NS(=O)(=O)C(F)F)c1ccc(F)cc1 [Compound 271, (R)-3-(4-((difluoromethyl)sulfonamido)-3-(1-(4-fluorophenyl)ethoxy)phenyl)-5-(pyrazin-2-ylamino)-1H-pyrazole-4-carboxamide] | > 30 | < 0.01 | > 30
9 | COc1cnc(Nc2[nH]nc(-c3ccc(NS(=O)(=O)CC(F)(F)F)c(OCc4ccc(Cl)cc4)c3)c2C(N)=O)cn1 [Compound 157, 3-(3-((4-chlorobenzyl)oxy)-4-((2,2,2-trifluoroethyl)sulfonamido)phenyl)-5-((5-methoxypyrazin-2-yl)amino)-1H-pyrazole-4-carboxamide] | > 30 | < 0.01 | > 30
10 | NC(=O)c1c(-c2ccc(NS(=O)(=O)C(F)F)c(OC3(c4ccc(F)cc4)CC3)c2)n[nH]c1Nc1cnccn1 [Compound 307, 3-(4-((difluoromethyl)sulfonamido)-3-(1-(4-fluorophenyl)cyclopropoxy)phenyl)-5-(pyrazin-2-ylamino)-1H-pyrazole-4-carboxamide] | > 30 | < 0.01 | > 30
11 | CCS(=O)(=O)Nc1ccc(-c2n[nH]c(Nc3ccc(OC)cn3)c2C(N)=O)cc1 [Compound 88, 3-(4-(ethylsulfonamido)phenyl)-5-((5-methoxypyridin-2-yl)amino)-1H-pyrazole-4-carboxamide] | 1 to 30 | < 0.01 | 1 to 30
12 | CCS(=O)(=O)Nc1ccc(-c2n[nH]c(Nc3ccccn3)c2C(N)=O)cc1OCc1ccc(F)cn1 [Compound 241, 3-{4-ethanesulfonamido-3-[(5-fluoropyridin-2-yl)methoxy]phenyl}-5-[(pyridin-2-yl)amino]-1H-pyrazole-4-carboxamide] | > 30 | < 0.01 | > 30
13 | CCS(=O)(=O)Nc1ccc(-c2n[nH]c(Nc3cc(C)on3)c2C(N)=O)cc1O[C@@H](C)c1ccc(F)cc1 [Compound 317, (S)-3-(4-(ethylsulfonamido)-3-(1-(4-fluorophenyl)ethoxy)phenyl)-5-((5-methylisoxazol-3-yl)amino)-1H-pyrazole-4-carboxamide] | > 30 | < 0.01 | > 30
14 | COc1ccc(S(=O)(=O)Nc2ccc(-c3n[nH]c(Nc4cnccn4)c3C(N)=O)cc2)cc1 [Compound 82, 3-(4-((4-methoxyphenyl)sulfonamido)phenyl)-5-(pyrazin-2-ylamino)-1H-pyrazole-4-carboxamide] | > 30 | 0.01 to 1 | > 30
15 | CCS(=O)(=O)Nc1ccc(-c2n[nH]c(Nc3cnccn3)c2C(N)=O)cc1OCc1ccc(C(F)(F)F)cc1 [Compound 216, 3-(4-(ethylsulfonamido)-3-((4-(trifluoromethyl)benzyl)oxy)phenyl)-5-(pyrazin-2-ylamino)-1H-pyrazole-4-carboxamide] | > 30 | 0.01 to 1 | > 30
16 | CCS(=O)(=O)Nc1ccc(-c2n[nH]c(Nc3ccc(C(F)(F)F)nc3)c2C(N)=O)cc1OCc1ccc(F)cc1 [Compound 194] | > 30 | < 0.01 | > 30
17 | COc1cnc(Nc2[nH]nc(-c3ccc(NS(=O)(=O)C(F)F)c(OCc4ccc(Cl)cc4)c3)c2C(N)=O)cn1 [Compound 190, 3-(3-((4-chlorobenzyl)oxy)-4-((difluoromethyl)sulfonamido)phenyl)-5-((5-methoxypyrazin-2-yl)amino)-1H-pyrazole-4-carboxamide] | > 30 | < 0.01 | > 30
18 | C[C@H](Oc1cc(-c2n[nH]c(Nc3cnccn3)c2C(N)=O)ccc1NS(=O)(=O)C(F)F)c1ccc(Cl)cc1 [Compound 252, 3-{3-[(1S)-1-(4-chlorophenyl)ethoxy]-4-(difluoromethanesulfonamido)phenyl}-5-[(pyrazin-2-yl)amino]-1H-pyrazole-4-carboxamide] | > 30 | < 0.01 | > 30
19 | C[C@H](Oc1cc(-c2n[nH]c(Nc3cc(C4CCOC4)on3)c2C(N)=O)ccc1NS(=O)(=O)C(F)F)c1ccc(F)cc1 (stereo partly drawn) [Compound 305, 3-(4-((difluoromethyl)sulfonamido)-3-((S)-1-(4-fluorophenyl)ethoxy)phenyl)-5-((5-(tetrahydrofuran-3-yl)isoxazol-3-yl)amino)-1H-pyrazole-4-carboxamide] | > 30 | < 0.01 | > 30
20 | CCS(=O)(=O)Nc1ccc(-c2n[nH]c(Nc3cc(C)nc(C)c3)c2C(N)=O)cc1 [Compound 112, 5-((2,6-dimethylpyridin-4-yl)amino)-3-(4-(ethylsulfonamido)phenyl)-1H-pyrazole-4-carboxamide] | > 30 | < 0.01 | > 30
21 | CCS(=O)(=O)Nc1ccc(-c2n[nH]c(Nc3ccc(C(=O)O)cn3)c2C(N)=O)cc1O[C@@H](C)c1ccc(F)cc1 [Compound 315, (S)-6-((4-carbamoyl-3-(4-(ethylsulfonamido)-3-(1-(4-fluorophenyl)ethoxy)phenyl)-1H-pyrazol-5-yl)amino)nicotinic acid] | > 30 | < 0.01 | > 30
22 | C[C@H](Oc1cc(-c2n[nH]c(Nc3cnc(C(C)(C)C)cn3)c2C(N)=O)ccc1NS(=O)(=O)C(F)F)c1ccc(F)cc1 [Compound 312, (S)-5-((5-(tert-butyl)pyrazin-2-yl)amino)-3-(4-((difluoromethyl)sulfonamido)-3-(1-(4-fluorophenyl)ethoxy)phenyl)-1H-pyrazole-4-carboxamide] | > 30 | < 0.01 | > 30
